Source: PubChem BioAssay (NCI)
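Method: 48-hour compound exposure of cells in 96-well plates, five concentrations, linear interpolation of endpoints. GI50: concentration for 50% inhibition of growth. Definition used: TGI = concentration required for complete inhibition of growth.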

System: MDA-MB-468 breast
Experiment: inhibition of tumour cell growth, NCI panel, 48 h

Cc1ccc(N(CCCl)CCCl)cc1 showed a GI50 of 1.55 µM and a TGI of 5.86 µM.
